Source: patent US11160758B2, “Modified release formulations and uses thereof” (Sunovion Pharmaceuticals Inc., priority 2019, dated 2021)

Chains of the proteins cited; added tags and fusions are not shown.
UniProt P34969, whole entry: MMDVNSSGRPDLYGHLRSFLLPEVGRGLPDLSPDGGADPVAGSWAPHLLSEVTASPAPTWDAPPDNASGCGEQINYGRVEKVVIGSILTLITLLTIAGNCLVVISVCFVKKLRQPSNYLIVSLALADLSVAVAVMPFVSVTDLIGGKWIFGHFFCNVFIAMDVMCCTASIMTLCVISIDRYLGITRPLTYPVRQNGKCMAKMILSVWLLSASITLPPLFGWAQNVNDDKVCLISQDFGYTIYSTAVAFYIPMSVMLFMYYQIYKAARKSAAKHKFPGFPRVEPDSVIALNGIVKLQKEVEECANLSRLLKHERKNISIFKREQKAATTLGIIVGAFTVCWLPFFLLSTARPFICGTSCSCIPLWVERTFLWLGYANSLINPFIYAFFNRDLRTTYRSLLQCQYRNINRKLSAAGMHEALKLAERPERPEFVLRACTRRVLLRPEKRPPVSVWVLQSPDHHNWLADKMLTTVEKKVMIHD

Biological target: Serotonin 5-HT7 receptors (Homo sapiens, UniProt P34969)
Test: radioligand binding, [3H]LSD, receptors expressed in CHO-K1 cells

5-HT7 antagonism relative to that of the (S)-amisulpride (FIG. 5B) | SMILES | 5-HT7/D2 (Table 19, ratio of Ki values)
 | CCN1CCCC1CNC(=O)c1cc(S(=O)(=O)CC)c(N)cc1OC (racemic) [Racemic (50:50)] | 13
about 300 fold | CCN1CCC[C@@H]1CNC(=O)c1cc(S(=O)(=O)CC)c(N)cc1OC [(R)-amisulpride, R-4-Amino-N-[(1-ethyl-2-pyrrolidinyl)methyl]-5-(ethylsulfonyl)-2-methoxybenzamide] | 
